# Yeast mating assay 2: variants of the scFv Ab-91

Source: Engelhart et al. 2022 (doi:10.1038/s41597-022-01779-4), MIT Lincoln Laboratory and A-Alpha Bio; data file from the FLAb repository.

Target: peptide PDVDLGDISGINAS, taken from heptad repeat 2 (HR2) of SARS-CoV-2 spike.

Ab-91 is the parent antibody, in scFv form: VL, then the linker GGGGSGGGGSGGGGS, then VH. The light chain is unchanged in all variants.
VL: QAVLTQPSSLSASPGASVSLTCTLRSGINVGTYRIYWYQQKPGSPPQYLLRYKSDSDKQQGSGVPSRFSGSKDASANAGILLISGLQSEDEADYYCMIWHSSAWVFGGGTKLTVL
VH: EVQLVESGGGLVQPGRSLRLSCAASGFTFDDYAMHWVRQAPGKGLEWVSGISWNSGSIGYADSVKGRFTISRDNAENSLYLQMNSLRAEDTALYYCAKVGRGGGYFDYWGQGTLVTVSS

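In library AAYL51, one, two or three CDR residues were substituted; doubles and triples were drawn at random. AlphaSeq pools MATa yeast showing the antibodies with MATalpha yeast showing the peptide. Pairs that bind mate more often; barcode pairs of the diploids are counted by sequencing. A regression on co-assayed BCL2-family reference pairs converts the normalised counts of each replicate to an apparent Kd. Each pool was mated in three replicate cultures.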

Variants are written as CDR1, CDR2 and CDR3 of the heavy chain (limits as in the source). Parent: GFTFDDYAMH, GISWNSGSIGYADSVK, VGRGGGYFDY. This list gathers variants with a substitution at G102 (VH, numbered from residue 1). Each Kd is an estimate from the mating assay, the geometric mean of the replicates in which the pair was seen; lower is stronger. An entry "nd" has no value in the source: the pair was not observed among the diploids in any replicate. This suggests poor binding but is not conclusive. In this assay the parent's reference entry averaged 72 nM; its copy inside this library read 7.5 nM. As a blank, each scFv also met three strains without target: over library AAYL51, 21% of these pairings were detected, typically at 34 µM and seldom below 1.8 µM. The control count says in how many pairings with the empty strains this scFv gave a signal.

The variant GFTFDDMAMH | GISWNSGSIGYADSVK | VGRFGGYFDP gave 26 µM (2 of 3 replicates; controls 5 of 9). The variant GFTFDDYAMN | GISWNSGSIGYADSVK | VGRDGGYLDY showed 3.7 µM (2 of 3 replicates; controls 1 of 9). For GFTGDDYMMH | GISWNSGSIGYADSVK | VGRVGGYFDY, the assay gave nd (0 of 3 replicates; controls 2 of 9). With GFTFDDYAMH | GISWNSGKIGYADSVK | VGRWGGPFDY the result was 120 µM (3 of 3 replicates; controls 7 of 9). The variant GFTFDDYAML | GISWNSGSIGYADSVK | VGRFGGYFMY showed nd (0 of 3 replicates; controls 1 of 9). The variant GFTFDDYAMH | GTSWNSGSIGYADSVK | VGRYGGYFDY showed 36 µM (1 of 3 replicates; controls 1 of 9). With GFTFDDYAMH | GISWNSGSIGYADSVK | VGRQRGYFIY the result was 3.0 µM (2 of 3 replicates; controls 1 of 9).

For GFTFDDYAMH | GISWNSGSIGYADSVK | VGRNGGVFDY, the assay gave 150 nM (3 of 3 replicates; controls 4 of 9). The variant GFTFDDYAMH | GISWNSGSIGYADSVK | VGPHGGYFDY gave 20 nM (1 of 3 replicates; controls 0 of 9). With GFNFDQYAMH | GISWNSGSIGYADSVK | VGRAGGYFDY the result was 6.0 nM (3 of 3 replicates; controls 8 of 9). For GFTFDDYAMH | GISWNSGSIPYADSVK | VGRMGGTFDY, the assay gave 84 µM (2 of 3 replicates; controls 6 of 9). For GFTFDDYEMH | GISLNSGSIGYADSVK | VGRHGGYFDY, the assay gave nd (0 of 3 replicates; controls 0 of 9). The variant GFTFDDYAMH | GISWNSGSIGYMDSVK | VHRQGGYFDY showed 300 µM (3 of 3 replicates; controls 1 of 9). The variant GFTFDDYAMH | SISWNSGSIGYADSVK | VGIEGGYFDY showed nd (0 of 3 replicates; controls 1 of 9).

For GFTFDDQAMH | GISWNSGSIGNADSVK | VGRKGGYFDY, the assay gave 170 µM (1 of 3 replicates; controls 2 of 9). For GFTFDDYAMH | GISWNSGSIGYADRVK | VGRHGGWFDY, the assay gave 500 nM (3 of 3 replicates; controls 0 of 9). For GFTFDDRAMH | GISWNSGSIGYADRVK | VGRKGGYFDY, the assay gave nd (0 of 3 replicates; controls 1 of 9). With GFTFDDYAMD | GISWNSGSIGYADSVK | VGYSGGYFDY the result was 220 µM (3 of 3 replicates; controls 8 of 9). The variant GFTFDDYAHH | GISWNSGNIGYADSVK | VGRCGGYFDY gave 8.5 µM (1 of 3 replicates; controls 1 of 9). The variant NFTFDDYAMH | GISWNSGSIGYADSVK | VGRNGGYFDY gave 24 µM (3 of 3 replicates; controls 5 of 9). With GFTFDDYAMH | GISWISGSIGYADSVK | VGRFGLYFDY the result was 10 µM (1 of 3 replicates; controls 0 of 9).

The variant GFVFDDYATH | GISWNSGSIGYADSVK | VGRSGGYFDY gave 14 µM (2 of 3 replicates; controls 2 of 9). For GFTFDDYAMH | GISWNSGSIGYADFVK | VGIAGGYFDY, the assay gave 13 µM (2 of 3 replicates; controls 3 of 9). For GGTFDDYAMH | GISWNSCSIGYADSVK | VGRMGGYFDY, the assay gave 120 µM (1 of 3 replicates; controls 2 of 9). With GFTFNDYAMH | GISWNSGSIGYADSVK | VGRVGGYFDP the result was 34 nM (3 of 3 replicates; controls 4 of 9). The variant GFTFDDYAMH | EISWNSGSIGYADSVK | VGRLGGHFDY gave 22 µM (1 of 3 replicates; controls 0 of 9). For GFTFDDYAMH | GISWNSGSIGYADSVK | VGRTGGYFDY, the assay gave nd (0 of 3 replicates; controls 5 of 9). The variant GFTFDDYAMH | GVSWNSGSIGYADSVK | VGIKGGYFDY showed 21 µM (1 of 3 replicates; controls 0 of 9).

For GFTFDDYAMH | GISWNSGSIGWADSVK | VGRHGGYFDY, the assay gave nd (0 of 3 replicates; controls 0 of 9). With GFTFDDYAMH | GISWNSGSIGYADSVK | VGRAGGYFDY the result was 6.5 µM (2 of 3 replicates; controls 3 of 9). The variant GFTFDDYAMH | NISWNSTSIGYADSVK | VGRVGGYFDY gave 7.2 µM (2 of 3 replicates; controls 4 of 9). With GFLFDDYAMH | GISVNSGSIGYADSVK | VGRIGGYFDY the result was nd (0 of 3 replicates; controls 2 of 9). The variant GFTFDDYAMH | GISWNSGSIGYADSVK | VERSGGYIDY gave 86 nM (3 of 3 replicates; controls 2 of 9). With GQTFDDYAMH | GISWNSGSIGYADSVK | KGRWGGYFDY the result was nd (0 of 3 replicates; controls 1 of 9). The variant GFTFDDYAMH | GISWNSDSYGYADSVK | VGRRGGYFDY gave nd (0 of 3 replicates; controls 0 of 9).

The variant GFTFDDYAMH | WISWNSGSIGYADSVK | VGRAGGYVDY showed nd (0 of 3 replicates; controls 0 of 9). The variant GFFFDDYAMH | GISWNSGSIGYADSVK | VSRFGGYFDY gave 190 µM (2 of 3 replicates; controls 1 of 9). With GFTFDDYAMH | GISWNSGSIGCADSVK | VGRVGGYFDY the result was nd (0 of 3 replicates; controls 0 of 9). The variant GFTFDDYAMR | GISWNSGSQGYADSVK | VGRFGGYFDY gave 49 µM (1 of 3 replicates; controls 0 of 9). For GFTFDDYAMV | GISWNSGFIGYADSVK | VGRAGGYFDY, the assay gave 140 µM (2 of 3 replicates; controls 4 of 9). With GTTFDDYWMH | GISWNSGSIGYADSVK | VGRHGGYFDY the result was nd (0 of 3 replicates; controls 0 of 9). With GFTFDDYAAH | GISWNSGSIGYADSVK | VTRWGGYFDY the result was 61 µM (2 of 3 replicates; controls 6 of 9).

The variant GFTFADYWMH | GISWNSGSIGYADSVK | VGRRGGYFDY gave 350 µM (1 of 3 replicates; controls 1 of 9). The variant GFTFDDYAMH | GISWCSGSIGYADSVK | VGRMGGYFDY showed 5.2 µM (1 of 3 replicates; controls 5 of 9). For GFTFDSYAMH | GISWNSGSIGYADSVK | VGRDGGYFQY, the assay gave 14 nM (3 of 3 replicates; controls 0 of 9). The variant GFTFDDYAMH | NISWNSGSIGQADSVK | VGRTGGYFDY gave nd (0 of 3 replicates; controls 0 of 9). With GFTFDDYFMH | GISWNSGSIGYAASVK | VGRYGGYFDY the result was 49 µM (1 of 3 replicates; controls 0 of 9).

Extract of 3 entries:

{"CDR-H1": "GFNFDQYAMH", "CDR-H2": "GISWNSGSIGYADSVK", "CDR-H3": "VGRAGGYFDY", "Kd (apparent)": "6.0 nM", "seen in": "3 of 3", "control signals": "8 of 9"}
{"CDR-H1": "GFTFDDYAHH", "CDR-H2": "GISWNSGNIGYADSVK", "CDR-H3": "VGRCGGYFDY", "Kd (apparent)": "8.5 µM", "seen in": "1 of 3", "control signals": "1 of 9"}
{"CDR-H1": "GFTFDDYAMH", "CDR-H2": "GISWNSGSIGWADSVK", "CDR-H3": "VGRHGGYFDY", "Kd (apparent)": "nd", "seen in": "0 of 3", "control signals": "0 of 9"}